Earlier results as cited in publication PMC4426000.

Target: eNOS (UniProt P29474)

Kd: < 1 nM
Substance: calmodulin (from UniProt P0DP23)
